Source: US7470703B1 (priority 2004, dated 2008)
Read-outs that look alike come from different tables or passages of the source.

Amino acid sequences for entries named in this document (tags omitted).
UniProt P08913, whole entry: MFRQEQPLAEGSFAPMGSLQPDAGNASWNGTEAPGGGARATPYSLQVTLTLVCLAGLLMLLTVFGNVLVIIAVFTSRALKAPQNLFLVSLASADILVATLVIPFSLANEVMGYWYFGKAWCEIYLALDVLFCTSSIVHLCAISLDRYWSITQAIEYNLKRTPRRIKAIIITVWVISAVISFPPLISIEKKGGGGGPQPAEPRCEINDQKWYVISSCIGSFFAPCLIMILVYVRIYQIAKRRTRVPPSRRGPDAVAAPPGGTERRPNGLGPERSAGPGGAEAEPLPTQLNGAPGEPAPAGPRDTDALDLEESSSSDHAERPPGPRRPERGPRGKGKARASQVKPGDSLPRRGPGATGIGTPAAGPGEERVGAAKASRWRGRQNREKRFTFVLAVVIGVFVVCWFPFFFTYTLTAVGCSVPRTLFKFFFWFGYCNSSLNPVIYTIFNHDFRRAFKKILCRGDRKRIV
UniProt P35348, whole entry: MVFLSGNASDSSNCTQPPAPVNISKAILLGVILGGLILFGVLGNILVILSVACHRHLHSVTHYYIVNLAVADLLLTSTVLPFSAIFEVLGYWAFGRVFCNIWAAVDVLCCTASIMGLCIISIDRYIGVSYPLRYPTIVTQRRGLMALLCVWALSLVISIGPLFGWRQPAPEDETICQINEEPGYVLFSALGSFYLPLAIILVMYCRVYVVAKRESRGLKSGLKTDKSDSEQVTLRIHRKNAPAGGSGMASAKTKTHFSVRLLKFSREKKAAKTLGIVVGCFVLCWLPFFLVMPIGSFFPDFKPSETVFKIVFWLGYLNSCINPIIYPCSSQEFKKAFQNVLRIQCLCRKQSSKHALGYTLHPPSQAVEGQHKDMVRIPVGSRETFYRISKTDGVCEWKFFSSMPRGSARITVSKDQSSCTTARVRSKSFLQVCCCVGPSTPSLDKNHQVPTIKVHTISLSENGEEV
UniProt P35368, whole entry: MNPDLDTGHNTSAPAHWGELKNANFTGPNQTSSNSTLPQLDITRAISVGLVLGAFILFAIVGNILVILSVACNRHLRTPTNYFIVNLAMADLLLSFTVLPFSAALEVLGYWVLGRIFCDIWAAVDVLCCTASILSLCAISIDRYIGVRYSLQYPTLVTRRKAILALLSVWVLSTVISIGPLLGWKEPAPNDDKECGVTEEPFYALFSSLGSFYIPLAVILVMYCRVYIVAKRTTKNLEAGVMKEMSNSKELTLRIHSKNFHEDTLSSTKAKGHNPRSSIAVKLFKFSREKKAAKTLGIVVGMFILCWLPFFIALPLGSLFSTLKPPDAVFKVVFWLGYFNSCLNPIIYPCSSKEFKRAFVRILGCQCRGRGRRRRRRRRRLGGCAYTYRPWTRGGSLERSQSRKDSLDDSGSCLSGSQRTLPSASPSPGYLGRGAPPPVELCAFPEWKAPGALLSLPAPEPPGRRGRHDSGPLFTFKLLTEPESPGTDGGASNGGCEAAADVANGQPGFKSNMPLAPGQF
UniProt P25100, whole entry: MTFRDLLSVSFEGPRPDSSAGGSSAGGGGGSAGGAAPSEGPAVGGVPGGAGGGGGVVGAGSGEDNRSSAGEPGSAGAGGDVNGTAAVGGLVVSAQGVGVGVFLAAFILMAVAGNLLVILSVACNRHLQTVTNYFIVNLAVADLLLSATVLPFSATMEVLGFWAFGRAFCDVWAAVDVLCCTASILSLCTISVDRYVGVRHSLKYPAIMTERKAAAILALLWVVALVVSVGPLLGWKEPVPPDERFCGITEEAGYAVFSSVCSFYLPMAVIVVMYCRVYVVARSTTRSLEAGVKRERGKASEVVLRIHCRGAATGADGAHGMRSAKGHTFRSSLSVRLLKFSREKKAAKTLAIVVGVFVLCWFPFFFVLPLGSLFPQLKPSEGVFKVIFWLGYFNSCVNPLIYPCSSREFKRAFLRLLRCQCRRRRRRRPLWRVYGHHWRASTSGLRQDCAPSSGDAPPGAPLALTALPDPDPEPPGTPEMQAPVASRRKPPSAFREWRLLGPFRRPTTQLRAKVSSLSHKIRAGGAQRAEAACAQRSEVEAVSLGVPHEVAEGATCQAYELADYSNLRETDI

Tests used:
[1] = biological target: human α2A-AR (Homo sapiens, UniProt P08913); assay: Radioligand binding ([3H]rauwolscine) in CHO cells expressing human α2A-AR
[2] = biological target: human α1A-AR (Homo sapiens, UniProt P35348)
[3] = biological target: human α1B-AR (Homo sapiens, UniProt P35368)
[4] = biological target: human α1D-AR (Homo sapiens, UniProt P25100)

Row | Structure (SMILES) | Ki ([1]; read-out: Ki α2A, CHO cells) [nM] | Ki [1] [nM] | Ki [2] [nM] | Ki [3] [nM] | Ki [4] [nM]
1 | CC(C)(C)OC(=O)NCCCNC(=O)C1C(O)CCC2CN3CCc4c([nH]c5ccccc45)C3CC21 (stereo not shown) | 11.7 |  |  |  | 
2 | COC(=O)CNC(=O)[C@@H]1[C@H]2C[C@H]3c4[nH]c5ccccc5c4CCN3C[C@@H]2CC[C@@H]1O | 33.8 |  |  |  | 
3 | COC(=O)CNC(=O)CNC(=O)[C@@H]1[C@H]2C[C@H]3c4[nH]c5ccccc5c4CCN3C[C@@H]2CC[C@@H]1O | 46.7 | 46.8 |  |  | 
4 | O=C(NCCCNC(=O)C1C(O)CCC2CN3CCc4c([nH]c5ccccc45)C3CC21)OCc1ccccc1 (stereo not shown) | 12.3 | 12.3 | 646 | 692 | 955
5 | O=C(O)CCCNC(=O)C1C(O)CCC2CN3CCc4c([nH]c5ccccc45)C3CC21 (stereo not shown) | 933 |  |  |  | 
